For the assay, the target named is T1, human transferrin receptor (hTfR) (Homo sapiens, UniProt P02786).
T1 construct: made in house
Put plainly: Evaluation of molecular interaction between transferrin receptor (hTfR) and peptide using surface plasmon resonance (SPR). It is filed as binding. As to conditions: read-out: SPR. In a few lines: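 KD values are derived by least-squares fitting of single-cycle kinetic sensorgrams. Peptide series (5–100 nM) flows over recombinant hTfR dimer immobilized on a Ni-NTA chip by EDC/NHS coupling, in pH 8.0 HEPES buffer containing 0.1% BSA and 1.0% DMSO.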

Amino acid sequences for entries named in this document (tags omitted). Residues count along the entry.
UniProt P02786, 89-760 limits assumed: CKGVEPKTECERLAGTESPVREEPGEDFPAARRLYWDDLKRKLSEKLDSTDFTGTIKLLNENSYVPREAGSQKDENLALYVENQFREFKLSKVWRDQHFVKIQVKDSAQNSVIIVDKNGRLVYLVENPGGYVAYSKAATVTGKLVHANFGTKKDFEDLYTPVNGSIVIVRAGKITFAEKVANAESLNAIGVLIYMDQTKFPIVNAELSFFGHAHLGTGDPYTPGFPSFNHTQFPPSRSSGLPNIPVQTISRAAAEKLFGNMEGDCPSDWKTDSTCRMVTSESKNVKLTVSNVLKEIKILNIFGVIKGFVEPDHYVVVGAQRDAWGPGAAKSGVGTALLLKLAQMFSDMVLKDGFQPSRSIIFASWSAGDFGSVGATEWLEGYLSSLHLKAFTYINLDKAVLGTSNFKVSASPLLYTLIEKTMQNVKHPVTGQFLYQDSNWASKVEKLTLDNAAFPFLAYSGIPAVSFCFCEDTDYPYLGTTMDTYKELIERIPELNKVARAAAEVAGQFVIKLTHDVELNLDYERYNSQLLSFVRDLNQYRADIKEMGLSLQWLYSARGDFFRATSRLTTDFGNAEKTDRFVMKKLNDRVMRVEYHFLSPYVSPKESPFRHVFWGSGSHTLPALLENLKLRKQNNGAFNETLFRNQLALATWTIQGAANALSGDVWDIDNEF

[1] abbreviates: KD class of the peptide with linker for hTfR by surface plasmon resonance.
Setting [2] is: KD class of peptide with linker binding to hTfR, by SPR (TABLE 5).

pKd: −log10 of the molar value. Like-named read-outs stand apart in the source and are kept apart here.

For the molecule `CC[C@H](C)[C@@H]1NC(=O)[C@H](Cc2ccc(OCC(=O)O)cc2)NC(=O)[C@H](Cc2ccc(O)cc2)NC(=O)[C@H](CC(N)=O)NC(=O)[C@H](Cc2cn(CC(=O)O)c3ccccc23)NC(=O)[C@H](C(C)C)NC(=O)[C@H](Cc2cccc(Cl)c2)N(C)C(=O)[C@H](C(C)C)NC(=O)[C@H](C)NC(=O)CSC[C@@H](C(=O)NCC(=O)N[C@H](CO)C(=O)N[C@H](CO)C(=O)N[C@H](CO)C(=O)N[C@H](CO)C(=O)N[C@H](CO)C(=O)N[C@@H](CCCCN)C(N)=O)NC(=O)[C@H](Cc2ccc(O)cc2)N(C)C(=O)[C@H](Cc2ccncc2)NC(=O)[C@H](CCCCN2CCOCC2)NC(=O)[C@H](CCC(=O)NCCOCCOCCOCCOCCOCCOCCOCCOC)NC(=O)[C@H]([C@@H](C)CC)NC1=O` [compound 308], under setting [1], the pKd was 7.00 to 9.00.

With `CC[C@H](C)[C@@H]1NC(=O)[C@H](Cc2ccc(O)cc2)NC(=O)[C@H](Cc2ccc(O)cc2)NC(=O)[C@H](CC(N)=O)NC(=O)[C@H](Cc2c[nH]c3ccccc23)NC(=O)[C@H](C(C)C)NC(=O)[C@H](Cc2ccccc2)N(C)C(=O)[C@H](C(C)C)NC(=O)[C@H](C)NC(=O)CSC[C@@H](C(=O)NCC(=O)N[C@@H](CCC(=O)O)C(=O)N[C@H](C(=O)N[C@@H](CCCNC(N)=O)C(=O)N[C@@H](CCCCN=[N+]=[N-])C(N)=O)C(C)C)NC(=O)[C@H](Cc2ccc(O)cc2)N(C)C(=O)[C@H](Cc2ccc(O)cc2)NC(=O)[C@H](CCCNC(=N)N)NC(=O)[C@H](CCCNC(=N)N)NC(=O)[C@H]([C@@H](C)CC)NC1=O` [compound 297], the pKd under setting [1] is 7.00 to 9.00.

Take `CC[C@H](C)[C@@H]1NC(=O)[C@H](Cc2ccc(O)cc2)NC(=O)[C@H](Cc2ccc(O)cc2)NC(=O)[C@H](CC(N)=O)NC(=O)[C@H](Cc2c[nH]c3ccccc23)N(C)C(=O)[C@H](C(C)C)NC(=O)[C@H](Cc2ccccc2)N(C)C(=O)[C@H](C(C)C)NC(=O)[C@H](C)NC(=O)CSC[C@@H](C(=O)NCC(=O)N(C)CC(=O)N(C)CC(=O)N(C)CC(=O)N(C)CC(=O)N(C)CC(=O)N[C@@H](CCCCN=[N+]=[N-])C(N)=O)NC(=O)[C@H](Cc2ccc(O)cc2)N(C)C(=O)[C@H](Cc2ccc(O)cc2)NC(=O)[C@H](CCCNC(=N)N)NC(=O)[C@H](CCCCN)NC(=O)[C@H]([C@@H](C)CC)NC1=O` [compound 276]: the pKd under setting [1] is 7.00 to 9.00.

On to `CC[C@H](C)[C@@H]1NC(=O)[C@H](Cc2ccc(OCC(=O)O)cc2)NC(=O)[C@H](Cc2ccc(O)cc2)NC(=O)[C@H](CC(N)=O)NC(=O)[C@H](Cc2cn(CC(=O)O)c3ccccc23)NC(=O)[C@H](C(C)C)NC(=O)[C@H](Cc2cccc(Cl)c2)N(C)C(=O)[C@H](C(C)C)NC(=O)[C@H](C)NC(=O)CSC[C@@H](C(=O)NCC(=O)N[C@H](CCC(=O)O)C(=O)N[C@H](CO)C(=O)N[C@H](CCC(=O)O)C(=O)N[C@H](CO)C(=O)N[C@H](CCC(=O)O)C(=O)N[C@@H](CCCCNC(C)=O)C(N)=O)NC(=O)[C@H](Cc2ccc(O)cc2)N(C)C(=O)[C@H](Cc2ccccc2)NC(=O)[C@H](CCCNC(=N)N)NC(=O)[C@H](CCCNC(=N)N)NC(=O)[C@H]([C@@H](C)CC)NC1=O` [compound 334], for which the pKd under setting [2] is over 9.00.

Consider `CC[C@H](C)[C@@H]1NC(=O)[C@H](Cc2ccc(O)cc2)NC(=O)[C@H](Cc2ccc(O)cc2)NC(=O)[C@H](CC(N)=O)NC(=O)[C@H](Cc2c[nH]c3ccccc23)NC(=O)[C@H](C(C)C)NC(=O)[C@H](Cc2ccccc2)N(C)C(=O)[C@H](C(C)C)NC(=O)[C@H](C)NC(=O)CSC[C@@H](C(=O)NCC(=O)N[C@H](CCCNC(=N)N)C(=O)N[C@H](CCCNC(=N)N)C(=O)N[C@H](CCCNC(=N)N)C(=O)N[C@@H](CCCCN=[N+]=[N-])C(N)=O)NC(=O)[C@H](Cc2ccc(O)cc2)N(C)C(=O)[C@H](Cc2ccc(O)cc2)NC(=O)[C@H](CCCNC(=N)N)NC(=O)[C@H](CCCNC(=N)N)NC(=O)[C@H]([C@@H](C)CC)NC1=O` [compound 350], for which the pKd under setting [2] is 7.00 to 9.00.

For the molecule `CC[C@H](C)[C@@H]1NC(=O)[C@H](Cc2ccc(OCC(=O)O)cc2)NC(=O)[C@H](Cc2ccc(O)cc2)NC(=O)[C@H](CC(N)=O)NC(=O)[C@H](Cc2cn(CC(=O)O)c3ccccc23)NC(=O)[C@H](C(C)C)NC(=O)[C@H](Cc2cccc(Cl)c2)N(C)C(=O)[C@H](C(C)C)NC(=O)[C@H](C)NC(=O)CSC[C@@H](C(=O)NCC(=O)N[C@H](CO)C(=O)N[C@H](CO)C(=O)N[C@H](CO)C(=O)N[C@H](CO)C(=O)N[C@H](CO)C(=O)N[C@@H](CCCCN=[N+]=[N-])C(N)=O)NC(=O)[C@H](Cc2ccc(O)cc2)N(C)C(=O)[C@H](Cc2cccc(C(=O)O)c2)NC(=O)[C@H](CCCCN2CCOCC2)NC(=O)[C@H](CCCCN2CCOCC2)NC(=O)[C@H]([C@@H](C)CC)NC1=O` [compound 354], under setting [2], the pKd is 7.00 to 9.00.

For the origin of these results see US20260116920A1, “HUMAN TRANSFERRIN RECEPTOR BINDING PEPTIDE” (PEPTIDREAM INC., priority 2021, published 2026).
